The source of these data is publication PMC4192597, “Antimicrobials, Stress and Mutagenesis” (PLoS Pathogens, 2014).

As a reminder, the MIC is the least concentration at which growth counts as inhibited.

≈ marks a conversion by molar mass, not a printed value.

In this assay the test system is E. coli MG1655. To be noted: micro-dilution, inoculum 2×10^8 cfu/ml, 24 h, liquid MH medium, 37°C. On the procedure:
E. coli K-12 MG1655 was used for all experiments, grown in liquid Mueller-Hilton (MH) agar or agarose, unless otherwise indicated. All experiments were carried out at 37°C.
MICs were determined according to CLSI recommendations by a micro-dilution method with the exception that the inoculum size that was adjusted to 2×10^8 cfu/ml from a regrowth of overnight cultures to be consistent with the mutagenesis experiments. […] Polypropylene non-binding plates (Th. Geyer, Germany) were used for all experiments.

The compound `CC[C@H](C)[C@H](NC(=O)CN)C(=O)NCC(=O)N[C@@H](C)C(=O)N[C@H](C(=O)N[C@@H](CC(C)C)C(=O)N[C@@H](CCCCN)C(=O)N[C@H](C(=O)N[C@@H](CC(C)C)C(=O)N[C@H](C(=O)N[C@H](C(=O)NCC(=O)N[C@@H](CC(C)C)C(=O)N1CCC[C@H]1C(=O)N[C@@H](C)C(=O)N[C@@H](CC(C)C)C(=O)N[C@H](C(=O)N[C@@H](CO)C(=O)N[C@@H](Cc1c[nH]c2ccccc12)C(=O)N[C@H](C(=O)N[C@@H](CCCCN)C(=O)N[C@@H](CCCNC(=N)N)C(=O)N[C@@H](CCCCN)C(=O)N[C@@H](CCCNC(=N)N)C(=O)N[C@@H](CCC(N)=O)C(=O)N[C@@H](CCC(N)=O)C(N)=O)[C@@H](C)CC)[C@@H](C)CC)[C@@H](C)O)[C@@H](C)O)C(C)C)C(C)C` [Melittin] displayed an MIC of 2 µg/mL (≈ 0.703 µM).
